## Yeast mating assay B: variants of the scFv Ab-14

The measurements come from Li et al. 2023 (doi:10.1038/s41467-023-39022-2) through the FLAb antibody collection.

Target peptide (SARS-CoV-2 spike, HR2 region): PDVDLGDISGINAS

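The starting antibody came from a phage panning campaign against this peptide. This is the validation round: designs drawn from the data on random variants, tested in the same kind of assay. Group labels follow the data file (Ctrl: baseline library sampled from a position-specific scoring matrix, with some repeated check sequences; GP: Gaussian process model; HC: hill climbing; Gen: genetic algorithm; Gibbs: Gibbs sampling; a sequence that several methods proposed may carry one label only). In AlphaSeq, yeast of one mating type display the scFv and yeast of the other type display the target. Binding brings cells together so that they mate, and sequencing counts the barcode pairs among the diploids. Each replicate has its own calibration line, from reference interactions of the BCL2 family. Mating was done six times.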

Each scFv is VH, a (GGGGS)3 linker, VL, as in the parent Ab-14, and differs from it in the CDRs of the light chain only.
VH: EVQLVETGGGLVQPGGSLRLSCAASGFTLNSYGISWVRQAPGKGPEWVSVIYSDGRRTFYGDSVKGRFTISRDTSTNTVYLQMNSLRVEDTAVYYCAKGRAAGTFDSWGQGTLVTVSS
VL: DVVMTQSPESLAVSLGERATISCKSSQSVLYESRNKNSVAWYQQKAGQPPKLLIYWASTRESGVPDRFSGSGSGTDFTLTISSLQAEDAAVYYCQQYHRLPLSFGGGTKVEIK

Each variant is given by its three light chain CDRs, as the data file delimits them; those of the parent are KSSQSVLYESRNKNSVA, WASTRES, QQYHRLPLS.
Variants here have at most six changes.
Kd is apparent (estimated from mating counts) and averaged on the log scale over replicates with a signal. Smaller is tighter.
Where no diploid with the target was found in any replicate, the entry reads "nd": below detection, most likely a poor binder, though not proof of it.
The authors' rule: three or more of the six replicates give a measured affinity, fewer mean a poor binder.

- KSSISGLYESAMKNSVA / EASTRES / QQYHRLPLS [GP_HC] -> 1.5 nM (6 of 6 replicates; controls 0 of 18)
- KLSQSWLYEGRNKNSVA / SASTRES / QQYHRLPLS [Ctrl] -> 17 nM (6 of 6 replicates; controls 1 of 18)
- KSSNSVFYELINKNGVA / WASTRES / AQYHRLPLS [Ctrl] -> 500 nM (1 of 6 replicates; controls 0 of 18)
- KLSQSVLYESMNKNSVA / EASTRES / QQYHRLPLS [GP_HC] -> 4.5 nM (6 of 6 replicates; controls 0 of 18)
- KLSQLWLYESRNKNSVA / NASQRES / QQYHRLPLS [GP_Gen] -> 760 pM (6 of 6 replicates; controls 0 of 18)
- KYSQSVLYESRNKNSVA / WASTRES / QQYHELPLS [Ctrl] -> nd (0 of 6 replicates; controls 0 of 18)
- KSSQSDLYESRNKNSVA / GASAREV / QQYHRLPLS [GP_HC] -> 680 pM (6 of 6 replicates; controls 0 of 18)
- KLRQSTLYESRNQNSVA / EASTRES / QQYHRLPLS [GP_HC] -> 1.6 nM (6 of 6 replicates; controls 0 of 18)
- NLSQSDLYESRNKNSVA / GGNTRES / QQYHRLPLS [GP_HC] -> 180 pM (6 of 6 replicates; controls 0 of 18)
- KLEQSVLYESRNKNAVA / NASQRES / QQYHRLPLS [GP_Gen] -> 1.1 nM (6 of 6 replicates; controls 1 of 18)
- KVSGSHLYESRNKNSVA / DASTRES / QQYHRLPLS [GP_Gen] -> 370 pM (6 of 6 replicates; controls 1 of 18)
- KSSQSFLYESRNKNSVA / DASTRES / QQYHRLPLS [Ctrl+GP_Gen] -> 850 pM (12 of 12 replicates; controls 1 of 36)
- KFSQSVLYESENKNSVA / HASTRES / QQYHRLPLS [Ctrl] -> 1.3 nM (6 of 6 replicates; controls 0 of 18)
- KLSFSWLYESRNKNSVA / EASTRES / QQYHRLPLS [GP_Gen] -> 1.7 nM (6 of 6 replicates; controls 0 of 18)
- KSYGSFLYESRNKNSVA / EASTRES / QQYHRLPLS [GP_HC] -> 1.8 nM (6 of 6 replicates; controls 0 of 18)
- KLSQSMLYESRNKNSVA / NASTRMV / QQYHRLPLS [GP_Gen] -> 400 pM (6 of 6 replicates; controls 1 of 18)
- KCSQSVLYESRNKASVA / WASTRES / QQYHRLPLS [Ctrl] -> nd (0 of 6 replicates; controls 0 of 18)
- KLQQSVLYESRNKNSVA / HASTRES / QDYHRLPLS [GP_Gen] -> 2.6 nM (6 of 6 replicates; controls 1 of 18)
- KSSPSYLEESRNKNSVA / EASTRES / QQYHRLPLS [GP_HC] -> 700 pM (6 of 6 replicates; controls 2 of 18)
- KLSQSDLYESRNKNSVA / NASTRLS / QQYHRLPLS [GP_Gen] -> 1.5 nM (6 of 6 replicates; controls 1 of 18)
- KLRQSTLYESRQKNSVA / WASTRLS / QQYHRLPLS [GP_HC] -> 5.9 nM (6 of 6 replicates; controls 0 of 18)
- KSSQSQLYESRNKNSVA / RASTRES / QQYHRLPLS [Ctrl] -> 8.8 nM (6 of 6 replicates; controls 2 of 18)
- KRSQSVLYESENKNSVA / QASQRES / QQYHRLPLS [Ctrl] -> 1.7 nM (6 of 6 replicates; controls 0 of 18)
- KAPQSVLYESRNHNSVA / WASLRES / QQYHRLPLS [Ctrl] -> 6.5 nM (6 of 6 replicates; controls 1 of 18)
- KSSLSYLYESRNTNSVA / EASTRES / QQYHRLPLS [GP_HC] -> 1.2 nM (6 of 6 replicates; controls 0 of 18)
- KSSQSWLYEGRNKNSVA / WASTRES / QQYHRLPLS [Ctrl] -> 12 nM (6 of 6 replicates; controls 0 of 18)
- KLSQSVLYQSRNKNSVA / EASTRES / QDYHRLPLS [GP_Gen] -> 1.0 nM (6 of 6 replicates; controls 0 of 18)
- KVSPSHLYESRNKNSVA / NASTRET / QQYHRLPLS [GP_Gibbs] -> 580 pM (6 of 6 replicates; controls 1 of 18)
- KSSQGVLYESAMKNSVA / WASTRES / QQYHRLPLS [Ctrl] -> 61 nM (5 of 6 replicates; controls 0 of 18)
- KISQVYLYESRNKNSVA / GASTRES / QQYHRLPLS [GP_HC] -> 1.1 nM (6 of 6 replicates; controls 1 of 18)
- KSSQSWGYESRNKNSVA / AASTRES / QQYHRLPLS [GP_HC] -> 780 pM (6 of 6 replicates; controls 0 of 18)
- KSSQSVLYESRNDNSVA / LASTRES / QQYHRLPLS [Ctrl] -> 120 nM (3 of 6 replicates; controls 0 of 18)
- KFSQSQLYEDRNKNSVA / NASQRES / QQYHRLPLS [GP_Gen] -> 270 pM (6 of 6 replicates; controls 2 of 18)
- KLSQSMLYESRNKNNVA / SASHREH / QQYHRLPLS [GP_Gibbs] -> 2.7 nM (6 of 6 replicates; controls 0 of 18)
- KLSQSNLYESRNKNSVA / NASTRED / QQYHRLPLS [GP_Gen] -> 350 pM (6 of 6 replicates; controls 0 of 18)
- KLQQSVEYESRMKNSVA / NASTRES / QQYHRLPLS [GP_Gen] -> 1.4 nM (6 of 6 replicates; controls 1 of 18)
- KLQQSVLYESRMKNSVA / NASQRES / QQYHRLPLS [GP_Gen] -> 990 pM (6 of 6 replicates; controls 0 of 18)

Picked from the list: the 3 lowest averages where every replicate gave a value.

* NLSQSDLYESRNKNSVA / GGNTRES / QQYHRLPLS [GP_HC] = 180 pM (6 of 6 replicates; controls 0 of 18)
* KFSQSQLYEDRNKNSVA / NASQRES / QQYHRLPLS [GP_Gen] = 270 pM (6 of 6 replicates; controls 2 of 18)
* KLSQSNLYESRNKNSVA / NASTRED / QQYHRLPLS [GP_Gen] = 350 pM (6 of 6 replicates; controls 0 of 18)

Three control strains display no target. For all light chain designs, 4% of the pairings with them gave a signal, with a median of 430 nM and one signal in twenty below 38 nM, so weak values seen in few replicates may be background. For each scFv, signals with the empty controls are counted beside the result.
The range of this assay differs from that of the first round, and the authors advise against merging the two.
Where one sequence has several entries in the source, the replicates are pooled.
The parent sequence was in this pool as ten entries: three were never detected, three once, and four in most replicates, with averages from 2.2 nM to 240 nM.